In publication PMC8541911 (Molecular cell, 2021):

Test system: μ-opioid receptor (μOR)
Assay type: cell-based

**Q.** Which “Classification of agonism and bias” value does the source give for Buprenorphine hydrochloride here?
**A.** The value was “G protein-biased partial agonist”.
